Laboratory results: patent US20090155395A1 (SAGITTARIUS LIFE SCIENCE CORP., priority 2007, published 2009)

By UniProt entry, the sequences of proteins in these tests, tags left out. Residues count along the entry.
UniProt P23219, 24-599: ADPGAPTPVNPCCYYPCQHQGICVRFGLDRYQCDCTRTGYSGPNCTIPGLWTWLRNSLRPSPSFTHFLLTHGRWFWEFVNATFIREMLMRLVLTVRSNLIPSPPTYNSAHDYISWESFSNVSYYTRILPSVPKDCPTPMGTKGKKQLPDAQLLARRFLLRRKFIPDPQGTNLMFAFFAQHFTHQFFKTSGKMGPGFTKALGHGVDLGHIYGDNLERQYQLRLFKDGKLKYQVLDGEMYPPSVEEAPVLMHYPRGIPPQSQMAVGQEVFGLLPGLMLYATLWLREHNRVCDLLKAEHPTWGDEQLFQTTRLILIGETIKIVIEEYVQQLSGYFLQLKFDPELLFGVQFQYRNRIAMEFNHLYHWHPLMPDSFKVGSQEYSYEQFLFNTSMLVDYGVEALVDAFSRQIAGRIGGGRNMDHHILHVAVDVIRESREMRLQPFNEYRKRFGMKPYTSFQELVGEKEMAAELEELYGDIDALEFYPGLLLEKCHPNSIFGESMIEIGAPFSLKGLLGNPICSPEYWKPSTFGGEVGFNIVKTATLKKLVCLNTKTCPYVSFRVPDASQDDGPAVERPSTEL

Target: Human platelet COX I (Homo sapiens, UniProt P23219)
Experiment: COX I inhibition in human platelets (PGE2 EIA)

With `CS(=O)(=O)c1ccc(C2=C(c3ccccc3)C(=O)OC2)cc1` [Rofecoxib] the IC50 was > 9.66 µM.
